Measurements taken from US20180312557A1, “Leg1 Protein, Leg1 Gene, and Uses and Drugs thereof” (ZHEJIANG UNIVERSITY, priority 2016, published 2018).

Molecular target: T1, EGFR (Homo sapiens, UniProt P00533)
T1 construct: endogenous in cells; host or cells: HepG2
Assay: Effect of EGFR inhibitor on mLeg1-induced Akt and EGFR phosphorylation in HepG2 cells
Assay type: cell-based
Settings: HepG2, 1 μM inhibitor
Description: 20.1 Culture of the HepG2 cell: reference may be made to step 18.1 for details.
20.2 Additives (BSA, mLeg1, AG1478) were added to the cell culture solution separately, after culture for 15 minutes, the total protein was extracted (referring to step 13.2), and the level of the proteins (p-Akt, Akt, P-EGFR) in each treatment group was detected by Western blot (referring to step 2.2).

COc1cc2ncnc(Nc3cccc(Cl)c3)c2cc1OC [AG1478, reference compound]
mLeg1-induced Akt phosphorylation: blocked
mLeg1-induced activation of EGFR (EGFR phosphorylation level): inhibited
